Literature values, collected in publication PMC11054528, “Evaluation of Physicochemical Properties of Ipsapirone Derivatives Based on Chromatographic and Chemometric Approaches” (Molecules, 2024).

By UniProt entry, the sequences of proteins in these tests, tags left out. Residues count along the entry.
UniProt P02768, 25-609: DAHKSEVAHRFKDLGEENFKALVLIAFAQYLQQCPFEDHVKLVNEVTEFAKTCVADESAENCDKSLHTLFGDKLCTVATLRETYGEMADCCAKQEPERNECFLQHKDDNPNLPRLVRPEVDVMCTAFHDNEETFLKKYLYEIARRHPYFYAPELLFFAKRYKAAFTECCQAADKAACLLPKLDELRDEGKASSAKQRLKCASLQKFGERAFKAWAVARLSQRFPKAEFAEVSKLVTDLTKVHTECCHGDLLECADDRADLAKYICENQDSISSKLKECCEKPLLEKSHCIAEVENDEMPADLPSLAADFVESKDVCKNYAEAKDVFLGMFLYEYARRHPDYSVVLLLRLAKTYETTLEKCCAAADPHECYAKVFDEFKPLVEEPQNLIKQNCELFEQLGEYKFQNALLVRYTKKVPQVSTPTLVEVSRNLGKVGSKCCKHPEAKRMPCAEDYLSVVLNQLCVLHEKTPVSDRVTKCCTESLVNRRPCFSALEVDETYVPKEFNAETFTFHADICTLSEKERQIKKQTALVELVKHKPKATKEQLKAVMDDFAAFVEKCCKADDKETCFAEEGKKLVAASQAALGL

Molecular target: human serum albumin (HSA) (Homo sapiens, UniProt P02768)
Conditions: calibration mixture for HSA-HPLC, reference value; column head printed CHI C18; cited from earlier work

Question: Which “HSA binding (HSA-HPLC calibration)” value does the source give for NC(=O)N1c2ccccc2C=Cc2ccccc21 [Carbamazepine] here?
Answer: 75.0%
